According to patent publication US8859783B2, “Indirubin-3′-oxime derivatives as potent cyclin dependent kinase inhibitors” (Anygen Co., Ltd., priority 2010, dated 2014):

Target: T1, Aurora A (Homo sapiens, UniProt O14965)
T1 construct: Recombinant proteins containing kinase domain were purchased from Millipore (Billerica, Mass.); purchased Millipore (Billerica, Mass.)
T1 sequence (O14965 133-383 limits assumed): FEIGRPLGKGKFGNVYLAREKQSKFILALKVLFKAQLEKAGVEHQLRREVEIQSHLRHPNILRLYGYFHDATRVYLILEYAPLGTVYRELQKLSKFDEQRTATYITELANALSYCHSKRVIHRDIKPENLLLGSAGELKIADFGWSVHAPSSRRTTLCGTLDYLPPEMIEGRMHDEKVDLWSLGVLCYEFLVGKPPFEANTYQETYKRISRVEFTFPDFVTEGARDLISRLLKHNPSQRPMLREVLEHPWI
Assay: HTRF kinase assay, Aurora A
Format: biochemical
Settings: dose response curves; read-out: IC50 against Aurora A
Experimental: Inhibition of kinase activity against a variety of recombinant kinases (c-Met, Met M1250T, Ron, VEGF2, EGFR, TrkA, PI3Kγ, IKKβ Insulin receptor, Aurora A) was measured using homogeneous time-resolved fluorescence (HTRF) assays. Briefly, assays are based on the phosphorylation of peptide substrates in the presence of ATP. Resulting phosphorylated substrates are detected by TR-FRET (Time Resolved-Fluorescence Resonance Energy Transfer) signal. Recombinant proteins containing kinase domain were purchased from Millipore (Billerica, Mass.). Optimal enzyme, ATP, and substrate concentrations were established for each enzyme using HTRF KinEASE kit (Cisbio) according to the manufacturer's instruction. Assays are consisted of enzymes mixed with serially diluted compounds and peptide substrates in kinase reaction buffer (250 mM HEPES (pH 7.0), 0.5 mM orthovanadate, 0.05% BSA, 0.1% NaN3). Following the addition of reagents for detection, TR-FRET signal was measured using EnVision multi-label reader (Perkin Elmer, Waltham, Mass.).

Question: For `O=C1Nc2ccc([N+](=O)[O-])cc2/C1=C1/Nc2ccc(O)cc2C1=NO` [Compound 11b, (2′Z, 3′E)-5′-Hydroxy-5-nitro-indirubin-3′-oxime], which IC50 is on record?
Answer: Its IC50 is 1 µM.
